## Yeast mating assay 1: variants of the scFv Ab-14

Values reported by Engelhart et al. 2022, doi:10.1038/s41597-022-01779-4 (FLAb copy).

Binding partner: SARS-CoV-2 spike HR2 peptide, sequence PDVDLGDISGINAS.

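The starting antibody came from a phage panning campaign against this peptide. In library AAYL49, one, two or three CDR residues were substituted; doubles and triples were drawn at random. The assay is AlphaSeq: two haploid yeast populations carry antibody and antigen on their surface. Binding brings cells together so that they mate, and sequencing counts the barcode pairs among the diploids. A regression on co-assayed BCL2-family reference pairs converts the normalised counts of each replicate to an apparent Kd. There are three technical replicates.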

Parent scFv Ab-14: VH joined to VL by the linker GGGGSGGGGSGGGGS. Changes lie in the heavy chain CDRs alone.
VH: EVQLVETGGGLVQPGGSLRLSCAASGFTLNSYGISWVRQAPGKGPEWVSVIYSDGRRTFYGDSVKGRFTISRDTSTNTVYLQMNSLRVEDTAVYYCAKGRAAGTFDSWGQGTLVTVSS
VL: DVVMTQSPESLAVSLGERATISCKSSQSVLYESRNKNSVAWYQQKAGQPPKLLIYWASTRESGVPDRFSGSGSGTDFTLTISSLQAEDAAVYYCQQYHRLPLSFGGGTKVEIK

Each variant is given by its three heavy chain CDRs, as the data file delimits them; those of the parent are GFTLNSYGIS, VIYSDGRRTFYGDSVK, GRAAGTFDS. All variants listed here change G33 of the VH, counted from its first residue. Affinities are written as log10 Kd with Kd in nM; a lower number is a better binder. The mean shown is taken over the replicates in which the pair was detected. Where no diploid with the target was found in any replicate, the entry reads "nd": below detection, most likely a poor binder, though not proof of it. Empty control strains, which show no peptide, gave a signal in 15% of pairings with library AAYL49; the median was 4.06 and 95% of these signals were weaker than 2.83. No background was subtracted. For reference, the parent read 0.65 as the reference entry and 4.11 (one replicate of three) as a member of this library.

For GFTLNSYEIS, VIYSDGRRTFYGDSVK, VRAAGTFDE, the assay gave nd (0 of 3 replicates).
For GFTLNSYKIS, VIYSDGRRTFYGDSVK, GRAAGTFDS, the assay gave nd (0 of 3 replicates).
For GFTLNSYRIS, VIYSDGMRTFYGDSVK, GRAAGHFDS, the assay gave nd (0 of 3 replicates).
For GFTLNSYCIS, VIYSDGRRTFYGDSVK, GMAAGTGDS, the assay gave nd (0 of 3 replicates).
For GFTLNSYNIS, VIYSQGRRTFYGDSVK, GRAIGTFDS, the assay gave 5.17 (1 of 3 replicates).
For GFTLNSYMIS, VIYSDGRRTFYGDSGK, GRAAGTFDS, the assay gave nd (0 of 3 replicates).
For GFTLNKYQIS, VIYSDGRRTFYGDSVK, GRAAMTFDS, the assay gave nd (0 of 3 replicates).
For GFTLCSYQIS, VIYSDGRRTFYGDQVK, GRAAGTFDS, the assay gave nd (0 of 3 replicates).
For GFTLNSRWIS, VIYSDGCRTFYGDSVK, GRAAGTFDS, the assay gave nd (0 of 3 replicates).
For GFTLNSYEIS, VIYSYGRRTFYGDSVK, GRAAGTFDS, the assay gave nd (0 of 3 replicates).
For GFTLNSYYIS, VIYSDGRRTFYGDFVK, GRAAGTFDS, the assay gave 5.00 (1 of 3 replicates).
For GFTLNSYQIS, KPYSDGRRTFYGDSVK, GRAAGTFDS, the assay gave nd (0 of 3 replicates).
For GFTGNSYDIS, VIYSDGRRTFYGDSVK, GRANGTFDS, the assay gave 5.12 (1 of 3 replicates).
For GFTLNSVYIS, VTYSDGRRTFYGDSVK, GRAAGTFDS, the assay gave nd (0 of 3 replicates).
For GFTLNSYIDS, VIYSDGRGTFYGDSVK, GRAAGTFDS, the assay gave nd (0 of 3 replicates).
For GFTLNSYPIS, VIYSDGRRTFYGISVK, GRAAGTFDS, the assay gave nd (0 of 3 replicates).
For GFTLNSYKIS, VIYSDGRHTFYGDSVK, GRAAGHFDS, the assay gave nd (0 of 3 replicates).
For GFTLGSYYIS, VIYSDGRRTFYGDSVH, GRAAGTFDS, the assay gave nd (0 of 3 replicates).
For FFSLNSYTIS, VIYSDGRRTFYGDSVK, GRAAGTFDS, the assay gave nd (0 of 3 replicates).
For GNTLNSYALS, VIYSDGRRTFYGDSVK, GRAAGTFDS, the assay gave nd (0 of 3 replicates).
For GQTLNSYLIS, VIYSDGRRTFYFDSVK, GRAAGTFDS, the assay gave 4.47 (2 of 3 replicates).
For GFTLNSYEIS, VIYSDGRRRFYGDSVK, GRYAGTFDS, the assay gave nd (0 of 3 replicates).
For GFTLNSYLIS, VIYSDGRRTFYGWSVK, GRAAGTFDS, the assay gave nd (0 of 3 replicates).
For GFTWNSYSIS, VIYSDGRRTFYGDSVK, GRAAGTLDS, the assay gave 4.47 (2 of 3 replicates).
For GFTQNSYSIS, VIYSDGRRTFYGDSVK, GRAAGVFDS, the assay gave nd (0 of 3 replicates).
For GNTLNSYEIS, VIYSDGRRTFIGDSVK, GRAAGTFDS, the assay gave 3.69 (1 of 3 replicates).
For AFTLNSYAIS, VIYSDGRRTFYMDSVK, GRAAGTFDS, the assay gave nd (0 of 3 replicates).
For GFTLNSYQIS, VIYSDGFRTFYGDSVK, GSAAGTFDS, the assay gave 3.67 (2 of 3 replicates).
For GFTLNSYSIS, VIYSDGLRTFYGDSVK, KRAAGTFDS, the assay gave 4.71 (2 of 3 replicates).
For GFTLCSYDIS, VIYSDGRRTFYGDSVS, GRAAGTFDS, the assay gave 2.63 (3 of 3 replicates).
For GFTLNSYFIS, KIYSDGRRTFYGDSVK, GWAAGTFDS, the assay gave nd (0 of 3 replicates).
For LFTLNSYVIS, VIYSDGRRTFYGDDVK, GRAAGTFDS, the assay gave 4.21 (1 of 3 replicates).
For GFTLNSYCIS, VIYSGGRRTFYGDSVK, GYAAGTFDS, the assay gave 4.34 (2 of 3 replicates).
For GFTLNSKMIS, VIYSDGRRTFYGDQVK, GRAAGTFDS, the assay gave 1.10 (3 of 3 replicates).
For GFTLNRYPIS, VIYSDWRRTFYGDSVK, GRAAGTFDS, the assay gave nd (0 of 3 replicates).
For GFTLNSYRIS, VISSDGRRTFYGDSVK, GRAAGTFDS, the assay gave nd (0 of 3 replicates).
For GFTLNSANIS, DIYSDGRRTFYGDSVK, GRAAGTFDS, the assay gave nd (0 of 3 replicates).
For GFTLNSYTIS, SIYSDGRRTFYGDSVK, GRCAGTFDS, the assay gave 3.12 (1 of 3 replicates).
For GFTLNSYMIS, VIYSDGRRTFYGDNVK, GRAAGTFDS, the assay gave nd (0 of 3 replicates).
For GFTLNSYLIS, VPYSDGRRTFYGDSVK, GRAAGTFDS, the assay gave 3.38 (1 of 3 replicates).
For GFTLNSYKIS, VIYLDGRRTFYGDSVK, GRAFGTFDS, the assay gave 3.76 (2 of 3 replicates).
For GFTLNSYWIS, VIYSDGRRTFYGDSVR, NRAAGTFDS, the assay gave nd (0 of 3 replicates).

Again, the first 3 entries without any signal:

CDR-H1,CDR-H2,CDR-H3,"log10 Kd (nM), mean",seen in
GFTLNSYEIS,VIYSDGRRTFYGDSVK,VRAAGTFDE,nd,0 of 3
GFTLNSYKIS,VIYSDGRRTFYGDSVK,GRAAGTFDS,nd,0 of 3
GFTLNSYRIS,VIYSDGMRTFYGDSVK,GRAAGHFDS,nd,0 of 3